Measured values taken from ChEMBL document CHEMBL2176912, “Diphenyl purine derivatives as peripherally selective cannabinoid receptor 1 antagonists” (J Med Chem, 2012).

Sequences of proteins named here, by UniProt entry; tags and fusion partners are left off.
UniProt P21554, whole entry: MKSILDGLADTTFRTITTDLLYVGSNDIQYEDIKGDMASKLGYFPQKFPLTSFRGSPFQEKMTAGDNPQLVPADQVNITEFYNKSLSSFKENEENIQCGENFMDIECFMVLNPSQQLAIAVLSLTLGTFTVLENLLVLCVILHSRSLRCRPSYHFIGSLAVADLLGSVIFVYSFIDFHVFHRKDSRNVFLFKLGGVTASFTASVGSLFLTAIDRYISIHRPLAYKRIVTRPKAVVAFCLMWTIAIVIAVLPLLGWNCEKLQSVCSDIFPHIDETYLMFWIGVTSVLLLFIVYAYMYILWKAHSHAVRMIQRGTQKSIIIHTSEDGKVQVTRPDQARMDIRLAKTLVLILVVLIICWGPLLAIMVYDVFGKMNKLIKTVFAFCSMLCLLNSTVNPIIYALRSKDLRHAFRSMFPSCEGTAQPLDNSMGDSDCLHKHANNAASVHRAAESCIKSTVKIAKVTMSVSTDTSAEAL

Each compound was assayed against Cannabinoid receptor 1 (Homo sapiens, UniProt P21554) (assay: Antagonist activity at human CB1 receptor transfected in CHO-K1 cells co-expressing Galphaq16 assessed as intracellular calcium mobilization using Calcein-4 AM by fluorescence assay).
Assay type: functional, cell-based
Outline: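 CHO-K1 cells engineered to coexpress human CB1 and Gαq16. Calcium flux read with fluorescent dye Calcein-4 AM on a plate reader. Antagonism measured as rightward shift of the CP55940 concentration–response curve. Ke = [ligand]/(DR−1), where DR is the ratio of CP55940 EC50 with and without test agent. Values are averages of 3–6 measurements.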

Row | Ke [µM] | SMILES
1 | 8.41 | Clc1ccc(-n2c(-c3ccccc3Cl)nc3c(N[C@H]4CCCNC4)ncnc32)cc1
2 | 3.93 | CC(C)(C)OC(=O)N1CCC[C@H](Nc2ncnc3c2nc(-c2ccccc2Cl)n3-c2ccc(Cl)cc2)C1
3 | 0.326 | CC(C)(C)OC(=O)N1CCC[C@@H](Nc2ncnc3c2nc(-c2ccccc2Cl)n3-c2ccc(Cl)cc2)C1
4 | 5.55 | Clc1ccc(-n2c(-c3ccccc3Cl)nc3c(N[C@@H]4CCCNC4)ncnc32)cc1
